{"sequences": {"note": "Amino acid sequences for entries named in this document (tags omitted).", "UniProt P30550, whole entry, stated change not applied": "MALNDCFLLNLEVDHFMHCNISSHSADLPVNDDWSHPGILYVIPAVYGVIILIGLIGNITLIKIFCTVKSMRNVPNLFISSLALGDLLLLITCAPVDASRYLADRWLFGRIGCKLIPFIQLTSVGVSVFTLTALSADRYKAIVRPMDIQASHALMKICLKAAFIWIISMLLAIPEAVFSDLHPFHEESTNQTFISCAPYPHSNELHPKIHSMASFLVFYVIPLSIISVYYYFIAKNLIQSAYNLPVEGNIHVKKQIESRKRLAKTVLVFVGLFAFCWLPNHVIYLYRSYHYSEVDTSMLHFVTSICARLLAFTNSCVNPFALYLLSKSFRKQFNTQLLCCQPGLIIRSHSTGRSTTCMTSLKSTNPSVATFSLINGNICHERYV"}, "source": "paper PMC12920379", "about": "(2025)", "binders": {"B1": {"name": "LF1 (nat/47Sc-LF1, statine-based GRPR antagonist) (peptide)", "chain": "FQWAVGHL", "modifications": "AAZTA5-Pip N-terminal chelator with nat/47Sc, D-Phe1, Sta between His and Leu, C-terminal NH2"}}, "biological_target": "GRPR (T47D cells) (Homo sapiens, UniProt P30550)", "test": "saturation binding on T47D cells at 4 °C"}
{"binder": "B1", "values": [{"measurement": "Kd", "result": 10.6, "unit": "nM"}]}
